Read-outs that look alike come from different tables or passages of the source.
What was measured:
rat mGlu2 receptor = rat mGlu2 receptor (Rattus norvegicus (Rat), UniProt P31421); assay: mGlu2 in vitro GIRK thallium flux assay; format: cell-based; conditions: NAM, EC80 glutamate, HEK-293 GIRK cells
Description: All cell culture reagents were purchased from Invitrogen Corp. (Carlsbad, Calif.) unless otherwise noted. Compound activity at the group II (mGlu2 and mGlu3) mGlus was assessed using thallium flux through GIRK channels. Briefly, cells were plated into 384-well, black-walled, clear-bottomed poly-D-lysine-coated plates at a density of 15,000 cells/20 μL/well in DMEM containing 10% dialyzed FBS, 20 mM HEPES, and 100 units/mL penicillin/streptomycin (assay media). Plated cells were incubated overnight at 37° C. in the presence of 5% CO2. […] Cells were incubated for 1 h at room temperature, and the dye exchanged to assay buffer using an ELX405, leaving 20 μL/well. Test compounds were diluted to 2 times their final desired concentration in assay buffer (0.3% DMSO final concentration). […] Cell plates and compound plates were loaded onto a kinetic imaging plate reader (FDSS 6000 or 7000; Hamamatsu Corporation, Bridgewater, N.J.). Appropriate baseline readings were taken (10 images at 1 Hz; excitation, 470±20 nm; emission, 540±30 nm) and test compounds were added in a 20 μL volume and incubated for either 2.5 min or 60 min as indicated before the addition of 10 μL of thallium buffer with or without agonist. After the addition of agonist, data were collected for approximately an additional 2.5 min. Data were analyzed using Excel (Microsoft Corp, Redmond, Wash.). The slope of the fluorescence increase beginning 5 s after thallium/agonist addition and ending 15 s after thallium/agonist addition was calculated, corrected to vehicle and maximal agonist control slope values, and plotted in using either XLfit (ID Business Solutions Ltd) or Prism software (GraphPad Software, San Diego, Calif.) to generate concentration-response curves. Potencies were calculated from fits using a four-point parameter logistic equation. For concentration-response curve experiments, compounds were serially diluted 1:3 into 10 point concentration response curves and were transferred to daughter plates using an Echo acoustic plate reformatter (Labcyte, Sunnyvale, Calif.). Test compounds were applied and followed by EC80 concentrations of glutamate.

By UniProt entry, the sequences of proteins in these tests, tags left out. Residues count along the entry.
UniProt P31421, 19-872: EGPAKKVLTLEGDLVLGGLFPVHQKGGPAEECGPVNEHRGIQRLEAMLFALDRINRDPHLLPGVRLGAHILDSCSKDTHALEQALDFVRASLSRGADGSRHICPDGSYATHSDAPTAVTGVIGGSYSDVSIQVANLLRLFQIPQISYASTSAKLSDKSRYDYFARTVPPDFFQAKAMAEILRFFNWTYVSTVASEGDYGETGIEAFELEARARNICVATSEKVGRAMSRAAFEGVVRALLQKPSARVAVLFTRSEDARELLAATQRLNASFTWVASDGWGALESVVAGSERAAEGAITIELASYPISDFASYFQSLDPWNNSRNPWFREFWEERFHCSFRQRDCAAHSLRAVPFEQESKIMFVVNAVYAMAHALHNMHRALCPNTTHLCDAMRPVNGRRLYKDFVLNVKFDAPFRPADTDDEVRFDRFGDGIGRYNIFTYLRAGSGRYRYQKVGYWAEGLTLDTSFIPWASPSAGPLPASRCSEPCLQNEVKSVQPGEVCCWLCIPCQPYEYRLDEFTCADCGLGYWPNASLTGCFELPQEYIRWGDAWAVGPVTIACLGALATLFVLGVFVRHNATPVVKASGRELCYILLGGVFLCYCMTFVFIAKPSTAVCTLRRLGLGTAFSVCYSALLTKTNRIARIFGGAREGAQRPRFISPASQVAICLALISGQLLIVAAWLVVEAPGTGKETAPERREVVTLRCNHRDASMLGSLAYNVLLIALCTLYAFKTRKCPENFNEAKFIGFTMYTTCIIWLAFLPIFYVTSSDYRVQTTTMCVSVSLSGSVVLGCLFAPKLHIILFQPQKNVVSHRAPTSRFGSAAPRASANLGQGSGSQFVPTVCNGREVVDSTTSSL
UniProt P31422, 23-879: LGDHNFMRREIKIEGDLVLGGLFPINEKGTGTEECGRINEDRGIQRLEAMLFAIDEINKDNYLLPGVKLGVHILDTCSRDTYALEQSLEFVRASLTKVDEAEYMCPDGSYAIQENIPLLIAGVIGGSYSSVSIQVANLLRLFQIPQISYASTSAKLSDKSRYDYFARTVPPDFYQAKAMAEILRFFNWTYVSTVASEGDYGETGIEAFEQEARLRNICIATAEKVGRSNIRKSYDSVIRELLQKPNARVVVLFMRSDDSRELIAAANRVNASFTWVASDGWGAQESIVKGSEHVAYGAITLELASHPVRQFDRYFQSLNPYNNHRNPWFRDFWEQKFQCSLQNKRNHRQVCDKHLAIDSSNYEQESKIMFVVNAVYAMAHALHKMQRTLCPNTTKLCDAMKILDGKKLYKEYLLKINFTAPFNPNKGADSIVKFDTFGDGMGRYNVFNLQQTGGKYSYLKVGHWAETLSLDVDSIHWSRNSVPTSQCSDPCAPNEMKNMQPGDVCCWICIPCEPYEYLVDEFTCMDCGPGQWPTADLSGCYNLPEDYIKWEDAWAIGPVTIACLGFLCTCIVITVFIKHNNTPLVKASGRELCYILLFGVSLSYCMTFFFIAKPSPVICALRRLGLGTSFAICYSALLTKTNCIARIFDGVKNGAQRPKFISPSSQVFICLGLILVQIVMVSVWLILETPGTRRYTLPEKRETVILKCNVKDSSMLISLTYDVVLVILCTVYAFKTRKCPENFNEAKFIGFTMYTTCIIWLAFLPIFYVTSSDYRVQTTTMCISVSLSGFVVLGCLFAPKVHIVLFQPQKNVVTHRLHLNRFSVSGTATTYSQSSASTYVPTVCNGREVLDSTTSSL

rat mGlu3 receptor = rat mGlu3 receptor (Rattus norvegicus (Rat), UniProt P31422); assay: mGlu3 in vitro GIRK thallium flux assay; format: cell-based; conditions: head printed mGlu2 but taken as mGlu3; 60 min compound incubation; EC80 glutamate
Description: All cell culture reagents were purchased from Invitrogen Corp. (Carlsbad, Calif.) unless otherwise noted. Compound activity at the group II (mGlu2 and mGlu3) mGlus was assessed using thallium flux through GIRK channels. Briefly, cells were plated into 384-well, black-walled, clear-bottomed poly-D-lysine-coated plates at a density of 15,000 cells/20 μL/well in DMEM containing 10% dialyzed FBS, 20 mM HEPES, and 100 units/mL penicillin/streptomycin (assay media). Plated cells were incubated overnight at 37° C. in the presence of 5% CO2. […] Cells were incubated for 1 h at room temperature, and the dye exchanged to assay buffer using an ELX405, leaving 20 μL/well. Test compounds were diluted to 2 times their final desired concentration in assay buffer (0.3% DMSO final concentration). […] Cell plates and compound plates were loaded onto a kinetic imaging plate reader (FDSS 6000 or 7000; Hamamatsu Corporation, Bridgewater, N.J.). Appropriate baseline readings were taken (10 images at 1 Hz; excitation, 470±20 nm; emission, 540±30 nm) and test compounds were added in a 20 μL volume and incubated for either 2.5 min or 60 min as indicated before the addition of 10 μL of thallium buffer with or without agonist. […] Data were analyzed using Excel (Microsoft Corp, Redmond, Wash.). […] Potencies were calculated from fits using a four-point parameter logistic equation. […]

[1] = 2.5 min compound incubation, read-out: mGlu2 EC50 (μM) (2.5 min)
[2] = 60 min compound incubation, read-out: mGlu2 EC50 (μM) (60 min)

| Structure (SMILES) | EC50 (rat mGlu2 receptor; [1]) | EC50 (rat mGlu2 receptor; [2]) | further results |
| --- | --- | --- | --- |
| O=C(O)c1cc(-c2cccc(-c3nc(-c4ccsc4)cc(C(F)(F)F)n3)c2)ccc1F [Example 122, 4-Fluoro-3′-(4-(thiophen-3-yl)-6-(trifluoromethyl)pyrimidin-2-yl)-[1,1′-biphenyl]-3-carboxylic Acid] | 0.15 µM |  |  |
| O=C(O)c1cccc(-c2cccc(-c3csc(-c4ccccc4)n3)c2)c1 [Example 28, 3′-(2-Phenylthiazol-4-yl)biphenyl-3-carboxylic Acid] | 0.42 µM |  |  |
| O=C(O)c1ccc(F)c(-c2cccc(-c3nc(-c4ccoc4)cc(C(F)(F)F)n3)c2)c1 [Example 114, 6-Fluoro-3′-(4-(furan-3-yl)-6-(trifluoromethyl)pyrimidin-2-yl)biphenyl-3-carboxylic Acid] |  | 0.15 µM |  |
| Cc1cc2c(cc1C(F)(F)F)NC(=O)CC(c1cccc(Oc3ccccn3)c1)=N2 [Example 150, 7-Methyl-4-(3-(pyridin-2-yloxy)phenyl)-8-(trifluoromethyl)-1H-benzo[b][1,4]diazepin-2(3H)-one] |  | 0.42 µM |  |
| O=C(O)c1cc(-c2cccc(-c3nc(-c4sccc4Cl)cc(C(F)(F)F)n3)c2)ccc1F [Example 107, 3′-(4-(3-Chlorothiophen-2-yl)-6-(trifluoromethyl)pyrimidin-2-yl)-4-fluorobiphenyl-3-carboxylic Acid] |  | 0.42 µM |  |
| O=C(O)c1cc(-c2cccc(-c3nc(-c4ccoc4)cc(C(F)(F)F)n3)c2)ccc1F [Example 94, 4-Fluoro-3′-(4-(furan-3-yl)-6-(trifluoromethyl)pyrimidin-2-yl)biphenyl-3-carboxylic Acid] | 0.15 µM |  |  |
| O=C(O)c1cc(-c2cccc(-c3nc(-c4ccc(C(F)(F)F)cc4)cc(C(F)(F)F)n3)c2)ccc1F [Example 108, 4-Fluoro-3′-(4-(trifluoromethyl)-6-(4-(trifluoromethyl)phenyl)pyrimidin-2-yl)biphenyl-3-carboxylic Acid] |  | 0.15 µM |  |
| O=C1CC(c2ccnc(Cl)c2)=Nc2ccc(C(F)(F)F)cc2N1 [Example 189, 4-(2-Chloropyridin-4-yl)-8-(trifluoromethyl)-1,3-dihydro-2H-benzo[b][1,4]diazepin-2-one] |  |  | EC50 (rat mGlu3 receptor): 0.42 µM |
